US20210346398A1, “COMBINATIONS WITH A C-19 STEROID FOR TREATING CANCERS” (priority 2018, published 2021)

How the values were obtained:
Type in all cases: cell-based, human
Conditions in all cases: 4 days, agent plus 4-OHT versus agent alone
MDAMB453 = assay: WST-1 proliferation assay of MDAMB453 cells
ZR-75-1 = assay: WST-1 proliferation assay of ZR-75-1 cells
T-47D cells = assay: WST-1 proliferation assay of T-47D cells
Text: The human breast cancer cell line T-47 D (ACC 739) was obtained from DSMZ as frozen cell pellet (Deutsche Sammlung von Mikroorganismen und Zellkulturen). Originally, these cells T-47D cell line was isolated by Keydar et al. (1979) from a pleural effusion obtained from a patient with an infiltrating ductal carcinoma of the breast T-47D is expressing the ER, PR and AR but lacking HER2/neu overexpression. Thus, T-47D may represent a cell line representative for the most prevalent breast cancer subtype.
T-47D were grown routinely in RPMI medium containing 10% fetal calf serum (FCS) and antibiotics in a humidified incubator at 36.5° C./90% humidity and 5% CO2. Cells were maintained in cell culture bottles for less than 20 passages before the individual experiments were conducted; cell suspensions were cultured 96 well plates and exposed at various concentrations of the individual agents; incubation time varied as indicated in the respective figures. WST-1 assay was used to monitor proliferation at 450 nm wavelength.
Growth was as compared to control using WST-1 assay (monitoring absorption at 450 nm wavelength as indicator for cell viability compared to growth control).
T-47D cells were grown routinely in RPMI medium containing 10% fetal calf serum (FCS) and antibiotics in a humidified incubator at 36.5° C./90% humidity and 5% CO2. […]

SMILES	SE1 (synergistic effect, A anti-cancer compound alone / A combination) (MDAMB453)	SE1 (synergistic effect, A anti-cancer compound alone / A combination) (ZR-75-1)	SE1 (synergistic effect, A anti-cancer compound alone / A combination) (T-47D cells)
CC(=O)O[C@@]12CO[C@@H]1C[C@H](O)[C@@]1(C)C(=O)[C@H](O)C3=C(C)[C@@H](OC(=O)[C@H](O)[C@@H](NC(=O)OC(C)(C)C)c4ccccc4)C[C@@](O)([C@@H](OC(=O)c4ccccc4)[C@H]21)C3(C)C [Docetaxel]	1.2	–	–
C=C1C[C@@H]2[C@H](CC[C@]3(C)C(=O)CC[C@@H]23)[C@@]2(C)C=CC(=O)C=C12 [Exemestane]	3.6	1.4	–
C[C@]12CC[C@@H]3c4ccc(O)cc4C[C@@H](CCCCCCCCC[S+]([O-])CCCC(F)(F)C(F)(F)F)[C@H]3[C@@H]1CC[C@@H]2O (stereo partly drawn) [Fulvestrant]	2.9	2.1	1.7
